Test results reported in ChEMBL document CHEMBL2429846, “Inhibition of monoamine oxidase by 3,4-dihydro-2(1H)-quinolinone derivatives” (Bioorg Med Chem Lett, 2013).

The chains behind the UniProt entries cited, without tags or fusion partners.
UniProt P27338, whole entry: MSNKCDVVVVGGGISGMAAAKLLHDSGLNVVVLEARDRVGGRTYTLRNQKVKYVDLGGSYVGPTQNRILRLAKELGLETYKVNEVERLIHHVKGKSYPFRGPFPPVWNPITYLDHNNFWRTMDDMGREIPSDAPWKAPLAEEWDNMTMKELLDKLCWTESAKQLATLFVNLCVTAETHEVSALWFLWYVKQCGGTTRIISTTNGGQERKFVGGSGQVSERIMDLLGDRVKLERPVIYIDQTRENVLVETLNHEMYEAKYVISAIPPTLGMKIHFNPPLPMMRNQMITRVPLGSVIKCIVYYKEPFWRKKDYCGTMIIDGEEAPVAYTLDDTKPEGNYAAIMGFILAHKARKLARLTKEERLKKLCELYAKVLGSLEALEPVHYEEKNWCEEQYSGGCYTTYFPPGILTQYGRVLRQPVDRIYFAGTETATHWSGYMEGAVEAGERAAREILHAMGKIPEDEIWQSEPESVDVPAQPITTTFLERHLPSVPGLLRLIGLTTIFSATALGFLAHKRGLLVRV

How the values were obtained:
[1] = target: T1, Amine oxidase [flavin-containing] B (Homo sapiens, UniProt P27338); assay: Inhibition of recombinant human MAO-B assessed as inhibition of kynuramine conversion to fluorescent metabolite 4-hydroxyquinoline after 20 mins by fluorescence spectrophotometry
Procedure, shortened: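 IC50 values were read from sigmoidal concentration–inhibition curves of enzyme activity plotted against log inhibitor concentration.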

[2] = target: T1, Amine oxidase [flavin-containing] B; assay: Reversible competitive inhibition of recombinant human MAO-B using kynuramine as substrate assessed as formation of 4-hydroxyquinoline by Lineweaver-Burk plot analysis

| IC50 [1] [nM] | Ki [2] [nM] | SMILES |
| --- | --- | --- |
| 6.2 | – | O=C1CCc2ccc(OCc3cccc(Cl)c3)cc2N1 |
| 2.9 | 2.7 | O=C1CCc2ccc(OCc3cccc(Br)c3)cc2N1 |
